Activity change, negative = inhibition data for 29 molecules are collected here from PubChem BioAssay AID887 (National Center for Advancing Translational Sciences (NCATS), 2007).

By UniProt entry, the sequences of proteins in these tests, tags left out.
UniProt P16050, whole entry: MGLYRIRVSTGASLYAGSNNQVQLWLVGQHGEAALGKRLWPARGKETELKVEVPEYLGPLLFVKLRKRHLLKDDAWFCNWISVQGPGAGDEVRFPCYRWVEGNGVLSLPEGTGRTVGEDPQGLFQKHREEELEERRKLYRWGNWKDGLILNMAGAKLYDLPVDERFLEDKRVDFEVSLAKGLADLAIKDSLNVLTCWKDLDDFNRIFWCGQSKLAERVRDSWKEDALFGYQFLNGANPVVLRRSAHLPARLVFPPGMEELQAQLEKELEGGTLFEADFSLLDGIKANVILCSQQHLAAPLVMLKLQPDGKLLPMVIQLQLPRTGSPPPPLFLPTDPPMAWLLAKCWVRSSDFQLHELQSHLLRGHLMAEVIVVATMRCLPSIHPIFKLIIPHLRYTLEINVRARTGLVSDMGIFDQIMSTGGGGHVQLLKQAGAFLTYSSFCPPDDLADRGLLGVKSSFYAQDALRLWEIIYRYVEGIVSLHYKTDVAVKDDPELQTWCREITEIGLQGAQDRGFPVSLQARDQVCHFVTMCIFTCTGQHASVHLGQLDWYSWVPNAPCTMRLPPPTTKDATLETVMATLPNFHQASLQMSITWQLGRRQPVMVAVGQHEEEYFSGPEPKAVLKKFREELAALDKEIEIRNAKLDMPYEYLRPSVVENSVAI

This is a selection; strong and weak results do not stand in their true shares. Records with an inconclusive call do not appear. Active and inactive are the calls of the source. Calls follow the shape of the dose curve; as a rule, active = well fitted inhibition curve with a large enough effect; inconclusive = small, poorly fitted or top-dose-only effect; inactive = no such curve, though single readings can be large or run the other way.
% is scaled to controls: 0 for no effect and ±100 for the full control effect.

For the experiment, the target named is Polyunsaturated fatty acid lipoxygenase ALOX15 (Homo sapiens) (UniProt P16050). Nature of the experiment: qHTS Assay for Inhibitors of 15-hLO (15-human lipoxygenase). Also: nearly all actives have a fitted effect of over 55% in size. The note with it: purified 15hLO-1, xylenol orange hydroperoxide absorbance; at 57.1 µM (top of the series) unless noted. Background: In qHTS, concentration-response curves come from the screen itself.
For `Cc1nc2ccc3ccccc3c2s1.O=[N+]([O-])c1cc([N+](=O)[O-])c(O)c([N+](=O)[O-])c1`, the activity change, negative = inhibition is inactive: -9.17%. Turning to `Cc1ccc([N+](=O)[O-])cc1[N+](=O)[O-]`, the activity change, negative = inhibition is inactive: -6.53%.

Consider `O=[N+]([O-])c1cccc([N+](=O)[O-])c1`, for which the activity change, negative = inhibition is inactive: 1.75%. For `Cc1ccc(C)c(NP(C)(=O)Oc2ccccc2)c1` (centres undefined), the activity change, negative = inhibition was inactive: 0.472%. For `O=[N+]([O-])[O-].[NH4+]` the value was inactive: 3.74%; for `COc1ccccc1OP(C)(=O)Nc1ccc(C)cc1` (centres undefined), inactive: 8.9%. To `Cc1ccc(NP(C)(=O)Oc2ccccc2)c(C)c1` (centres undefined) belongs inactive: 4.79%. To `CP(=S)(Nn1cnnc1)Oc1ccccc1` (centres undefined) belongs inactive: 2.24%; to `N1=C(c2nnc(-c3nn[nH]n3)nn2)NNN1`, inactive: 5.01% [at 11.4 µM]; to `CCOP(C)(=S)SCC(=O)NC(C)C(=O)O` (centres undefined), inactive: 1.91%.

As to `CP(=O)(NC(=O)Nc1ccccc1)Oc1ccccc1` (centres undefined), the activity change, negative = inhibition is inactive: 1.14%. `CP(=O)(Oc1ccccc1)N1CCOC1=O` (centres undefined): the activity change, negative = inhibition was inactive: 9.51%. For `OCCSCCO` the value was inactive: -1.99%; for `N#[O+].[C-]#N.[C-]#N.[C-]#N.[C-]#N.[C-]#N.[Fe+2].[Na+].[Na+]`, inactive: -13.7%; for `C/C1=C2N=C(/C=C3N=C(/C(C)=C4\[N-][C@@](C)([C@H]5N=C1[C@@](C)(CCC(=O)NC[C@H](C)OP(=O)([O-])O[C@@H]1[C@H](O)[C@H](n6cnc7cc(C)c(C)cc76)O[C@@H]1CO)[C@@H]5CC(N)=O)[C@](C)(CC(N)=O)[C@H]4CCC(N)=O)[C@@](C)(CC(N)=O)[C@@H]\3CCC(N)=O)C(C)(C)[C@@H]/2CCC(N)=O.[C-]#N.[Co+3]`, inactive: 6.47% [at 25.6 µM].

With `COc1ccccc1OP(C)(=O)Nc1ccc(C)c(C)c1` (centres undefined), the activity change, negative = inhibition was inactive: 15.2%.

`CP(=O)(Nc1ccccn1)Oc1ccccc1` (centres undefined): the activity change, negative = inhibition is inactive: 5.29%. For `CP(=O)(Nc1ccccc1F)Oc1ccccc1` (centres undefined) the value was inactive: 0.141%; for `CCC(C)(OO)OOC(C)(CC)OO` (centres undefined), inactive: -23%. For the molecule `Cc1cccc([N+](=O)[O-])c1[N+](=O)[O-]`, the activity change, negative = inhibition is inactive: 4.64%.

As to `Cc1c([N+](=O)[O-])cccc1[N+](=O)[O-]`, the activity change, negative = inhibition is inactive: -3.01%. To `Cc1ccc([N+](=O)[O-])c([N+](=O)[O-])c1` belongs inactive: 1.08%; to `CN(C)CCOC(=O)C(O)(c1ccccc1)C1CCCCC1` (centres undefined), inactive: -2.4%. Consider `Cc1ccccc1NP(C)(=O)Nc1ccccc1C`, for which the activity change, negative = inhibition was inactive: -1.75%. For the molecule `CCN(CCCl)Cc1ccccc1C`, the activity change, negative = inhibition was inactive: -2.58%. In the case of `[NH4+].[O-][Cl+3]([O-])([O-])[O-]`, the activity change, negative = inhibition was inactive: -1.51%.

On to `CP(=O)(Nc1ccc2c(c1)OCCO2)Oc1ccccc1` (centres undefined), for which the activity change, negative = inhibition is inactive: 13.4%. `CCOP(=O)(CC)OCC`: the activity change, negative = inhibition is inactive: -9.51%. For the molecule `CCOP(C)(=S)SCC(=O)NC(C)(CC)C(=O)O` (centres undefined), the activity change, negative = inhibition was inactive: -6.67%.
